# Results reported in PubChem BioAssay AID720648 (The Scripps Research Institute Molecular Screening Center, 2013).
# Chains of the proteins cited; added tags and fusions are not shown. Lines headed by an entry give the natural chain unless they say otherwise; changes in a name come on top.
# UniProt P78536: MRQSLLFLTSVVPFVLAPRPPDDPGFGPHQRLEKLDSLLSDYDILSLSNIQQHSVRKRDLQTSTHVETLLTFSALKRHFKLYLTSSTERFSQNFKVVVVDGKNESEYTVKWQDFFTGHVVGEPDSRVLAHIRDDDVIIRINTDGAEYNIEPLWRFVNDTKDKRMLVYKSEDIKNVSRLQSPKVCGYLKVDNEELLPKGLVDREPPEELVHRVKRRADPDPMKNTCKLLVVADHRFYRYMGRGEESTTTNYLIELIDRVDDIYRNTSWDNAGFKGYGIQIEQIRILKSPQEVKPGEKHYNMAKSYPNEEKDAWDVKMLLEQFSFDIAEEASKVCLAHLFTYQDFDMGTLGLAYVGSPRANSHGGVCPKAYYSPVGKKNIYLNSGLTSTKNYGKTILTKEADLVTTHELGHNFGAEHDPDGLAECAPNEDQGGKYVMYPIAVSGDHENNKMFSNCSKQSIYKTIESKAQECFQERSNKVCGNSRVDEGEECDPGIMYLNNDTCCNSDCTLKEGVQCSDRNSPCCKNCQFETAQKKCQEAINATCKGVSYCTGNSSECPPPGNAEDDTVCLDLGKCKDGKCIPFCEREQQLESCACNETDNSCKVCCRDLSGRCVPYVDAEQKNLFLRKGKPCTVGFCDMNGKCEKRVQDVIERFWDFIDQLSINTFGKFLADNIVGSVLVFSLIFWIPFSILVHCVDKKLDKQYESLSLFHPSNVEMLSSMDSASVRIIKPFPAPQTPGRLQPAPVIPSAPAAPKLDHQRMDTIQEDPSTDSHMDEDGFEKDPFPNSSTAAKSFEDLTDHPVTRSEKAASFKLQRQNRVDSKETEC
# The entries are a selection whose mix differs from that of the whole data set. Calls of active or inactive are those of the source.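 How the source made its calls: active means inhibition above the mean of compounds lying between control limits plus 3 SD, set per campaign (cut at about 8.5% in these data); inactive means the rest.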
# Target: Disintegrin and metalloproteinase domain-containing protein 17 (Homo sapiens) (UniProt P78536)
# Assay: inhibition of ADAM17 peptide cleavage – biochemical, QFRET, primary screen (AID 720648);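 further: 0% = DMSO-only wells as the low control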
# Conditions: recombinant ADAM17, EDANS/DABCYL FRET peptide cleavage; at 6.95 µM; hits give high values
row,Structure (SMILES),inhibition
1,Clc1n[nH]nc1-c1nn[nH][15n]1,inactive: -3.93%
2,CC(C)(C)C(=O)NC(Sc1ncccn1)C(Cl)(Cl)Cl (centres undefined),inactive: -6.83%
3,Cc1ccc(NCCc2c([N+](=O)[O-])cc([N+](=O)[O-])cc2[N+](=O)[O-])cc1,inactive: 3.57%
4,Nc1cccc2c([As](=O)(O)O)cccc12,inactive: -14.3%
5,CCCOP(=S)(Nc1nc(N)cc(=O)[nH]1)OCCC,inactive: 1.25%
6,COc1cc(C2NCCC3(OCCO3)C2(C)C)cc(OC)c1OC (centres undefined),inactive: -3.85%
7,CCOP(=O)(Nc1cccc2ccccc12)OCC,inactive: -3.03%
8,O=C(OC1CN2CCC1CC2)c1ccc(Cl)cc1 (centres undefined),inactive: -4.73%
9,COc1cc(C(=O)NCC2(N3CCOCC3)CCCCC2)cc(Cl)c1OC(C)C,inactive: -5.56%
10,O=[As](O)(O)c1cccnc1,inactive: -2.71%
11,CS(=O)(=O)c1ccc(Cl)c(NC(=O)COC(=O)C(O)(c2ccccc2)c2ccccc2)c1,inactive: 1.05%
12,O=[As](O)(c1cccc(O)c1)c1cccc(O)c1,inactive: -4.16%
13,Cc1cccc(OCC(=O)OC2CN3CCC2CC3)c1 (centres undefined),inactive: 1.17%
14,NC(=O)Nc1ccc([As](=O)(O)O)cc1,inactive: -2.52%
15,N#CCCN(C(=O)COC(=O)C(O)(c1ccccc1)c1ccccc1)c1ccc(F)cc1,inactive: -0.87%
16,CN(C(=O)Cc1ccccc1)[C@@H]1CC[C@]2(CCCO2)C[C@H]1N1CCCC1,inactive: -5.5%
17,CCOP1(=S)c2c(C)nn(CCC#N)c2N=C(c2ccc(F)cc2)N1C (centres undefined),inactive: 1.35%
18,CN(C)C(=O)c1cc([N+](=O)[O-])cc2c1-c1c(cc([N+](=O)[O-])cc1[N+](=O)[O-])C2=O,inactive: -1.59%
19,O=[N+]([O-])c1ccc2c(c1)nnn2O,inactive: -5.37%
20,CN(C(=O)Cc1ccc(Cl)c(Cl)c1)[C@H]1CC[C@@]2(CCCO2)C[C@@H]1N1CCCC1,inactive: -4.72%
21,CCOP1(=S)c2c(C)nn(CCC#N)c2N=C(c2ccccc2F)N1C (centres undefined),inactive: -1.66%
22,O=P(Nc1nccs1)(Oc1ccccc1)Oc1ccccc1,inactive: -1.29%

row,Structure (SMILES),inhibition
1,Nc1ccccc1[As](=O)(O)c1ccccc1,inactive: -4.03%
2,O=C(O)COc1ccc([As](=O)(O)O)cc1[N+](=O)[O-],inactive: -0.04%
3,O=C(OC1CN2CCC1CC2)c1ccccc1 (centres undefined),inactive: -6.43%
4,CCC(=O)N1C2C3N(C(=O)CC)C1C1N(C(=O)CC)C(C(N1C(=O)CC)N3C(=O)CC)N2C(=O)CC,inactive: -0.02%
5,COC(=O)c1cc2c(s1)N=C(c1ccccc1)N(C)P2(=O)N1CCOCC1 (centres undefined),inactive: 0.45%
6,CC(=O)NC(SC(=S)N(CC(C)C)CC(C)C)C(Cl)(Cl)Cl (centres undefined),inactive: -1.53%
7,Cc1ccc(OP(=O)(Nc2ccccn2)Oc2ccc(C)cc2)cc1,inactive: 3.3%
8,Cc1ccccc1OP(=O)(Nc1ccccn1)Oc1ccccc1C,inactive: -8.23%
9,CC(NC(=O)COC(=O)C(O)(c1ccccc1)c1ccccc1)c1ccccc1 (centres undefined),inactive: 0.98%
10,CN(C)C(=O)Oc1noc2ccccc12,inactive: -0.83%
11,O=c1c2cc([N+](=O)[O-])ccc2[nH]c2c([N+](=O)[O-])cc([N+](=O)[O-])cc12,inactive: -2.14%
12,c1ccc(-c2nn[nH]n2)c(-c2nn[nH]n2)c1,inactive: 1.41%
13,Cc1ccc(NP(=O)(Oc2cccc(C)c2)Oc2cccc(C)c2)nc1,inactive: -0.59%
14,CCNC(=S)/N=C(\N)N[N+](=O)[O-],inactive: -0.21%
15,O=C(NC1CCS(=O)(=O)C1)NP(=S)(Oc1ccccc1)Oc1ccccc1 (centres undefined),inactive: 1.88%
16,O=P1(N(CCCl)CCCl)OCCC2CCCCN21 (centres undefined),inactive: 2.79%
17,Cc1ccccc1CN(C)C(=O)COC(=O)C(O)(c1ccccc1)c1ccccc1,inactive: -3.99%
18,C[C@@H]1C=CCP(=O)(Oc2ccccc2)O1 (some centres undefined),inactive: 1.24%
19,C[C@H]1OP(=O)(Oc2ccccc2)C[C@@H]2O[C@@H]21 (some centres undefined),inactive: -0.81%
20,N#C/C(=C\c1ccc(N(CCBr)CCBr)cc1)C(N)=O,inactive: -2.57%
21,CC(=O)c1ccc(N2CC2c2ccncc2)cc1 (centres undefined),inactive: -2.27%
22,COC(=O)C1(C)COP(=O)(NCc2ccccc2)OC1 (centres undefined),inactive: -6.45%

row,Structure (SMILES),inhibition
1,CC(=O)Nc1ccc([As](=O)(O)O)c(O)c1,inactive: -4.2%
2,CC(=O)Nc1ccc(Oc2c([N+](=O)[O-])cc([N+](=O)[O-])cc2[N+](=O)[O-])cc1,inactive: -3%
3,O=P1(Nc2nc3ccc(Cl)cc3s2)COc2ccccc2O1 (centres undefined),inactive: -1.93%
4,CCOc1ccc(C2=NCC(CBr)S2)cc1 (centres undefined),inactive: 0.55%
5,CC(C)(C)C(=O)NC(Sc1ccccc1)C(Cl)(Cl)Cl (centres undefined),inactive: -0.94%
6,CCc1cc(O)c([N+](=O)[O-])c(C)c1[N+](=O)[O-],inactive: -0.68%
7,CC(C)C(=O)NC(Sc1ccccc1)C(Cl)(Cl)Cl (centres undefined),inactive: -4.01%
8,O=P(Nc1nccs1)(c1ccccc1)c1ccccc1,inactive: -0.7%
9,c1nnnn1CCn1cnnn1,inactive: 0.27%
10,O=[As](O)(c1ccccc1)c1ccc(O)cc1,inactive: 2.99%
11,CC(=O)NC(SC(=S)N(C)C)C(Cl)(Cl)Cl (centres undefined),inactive: -2.56%
12,O=[N+]([O-])c1ncn(CCn2cnc([N+](=O)[O-])n2)n1,inactive: -6.67%
13,O=C(OC1CN2CCC1CC2)c1cccc(Cl)c1 (centres undefined),inactive: 2.38%
14,C/C(N)=N\P(=O)(OCc1ccccc1)OCc1ccccc1,inactive: 2.16%
15,Nc1ccc([As](=O)(O)c2ccc([N+](=O)[O-])cc2)cc1,inactive: -1.98%
16,C(Cc1nn[nH]n1)Cc1nn[nH]n1,inactive: 0.33%
17,O=P(Nc1ccccn1)(c1ccc(Br)cc1)c1ccc(Br)cc1,inactive: -2.5%
18,CN(C)C1(CNC(=O)c2ccc(Cl)c(S(N)(=O)=O)c2)CCCCC1,inactive: -0.66%
19,Nc1ccc(CCCCOc2ccccc2)cc1,inactive: 1.95%
20,COc1ccc(N)c([N+](=O)[O-])c1[N+](=O)[O-],inactive: 6.11%
